Assay: Acid-base titration (pK MCS)
Type: physicochemical
Conditions: methyl cellosolve (MCS) H2O 4/1, excess 0.01M HCl, titrated with 0.01N NaOH; one basic ionizable function

Work on “38-Decarboxy-38-hydroxymethyl teicoplanin A2, component 2” yielded a pKMCS of 6.9.
